# Results from patent US20240360179A1, “STAPLED PEPTIDES AND METHODS THEREOF” (FOG PHARMACEUTICALS, INC., priority 2021, published 2024).
# Amino acid sequences for entries named in this document (tags omitted).
# UniProt P35222, whole entry: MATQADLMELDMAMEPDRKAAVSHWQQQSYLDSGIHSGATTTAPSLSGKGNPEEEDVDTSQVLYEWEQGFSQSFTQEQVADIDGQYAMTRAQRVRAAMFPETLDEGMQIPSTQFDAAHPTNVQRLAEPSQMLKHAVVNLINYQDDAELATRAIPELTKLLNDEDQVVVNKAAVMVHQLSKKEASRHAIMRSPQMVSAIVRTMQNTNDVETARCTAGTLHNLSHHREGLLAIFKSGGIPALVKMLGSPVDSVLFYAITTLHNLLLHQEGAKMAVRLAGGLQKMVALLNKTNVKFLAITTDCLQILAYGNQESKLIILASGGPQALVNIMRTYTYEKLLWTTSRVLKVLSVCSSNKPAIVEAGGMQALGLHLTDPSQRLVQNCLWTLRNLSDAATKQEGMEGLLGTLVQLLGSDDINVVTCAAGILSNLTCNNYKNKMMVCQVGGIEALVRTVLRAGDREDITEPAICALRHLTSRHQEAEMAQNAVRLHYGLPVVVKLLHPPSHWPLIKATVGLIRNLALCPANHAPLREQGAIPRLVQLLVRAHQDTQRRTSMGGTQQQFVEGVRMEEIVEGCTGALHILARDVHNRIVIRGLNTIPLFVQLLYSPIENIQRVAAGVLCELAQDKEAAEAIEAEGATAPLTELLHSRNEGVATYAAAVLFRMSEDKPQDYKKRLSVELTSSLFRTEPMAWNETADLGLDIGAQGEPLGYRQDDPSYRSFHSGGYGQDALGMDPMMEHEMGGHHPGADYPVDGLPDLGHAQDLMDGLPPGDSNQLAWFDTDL
# Target: T1, full-length B-Catenin (Uniprot ID P35222) (Homo sapiens, UniProt P35222)
# T1 construct: 10 nM full-length B-Catenin (Uniprot ID P35222)
# Type: binding
# Conditions: competition fluorescence polarization; read-out: beta-Catenin FP IC50
row,Substance,pIC50
1,Ac-PL3-Asp-Ile-B5-Asp-3COOHF-Aib-Ala-Phe-Lys*3-PyrS2-Phe-34ClF-dGlnR*3-Ala-NH2 [I-1759],6.70 to 7.30
2,Ac-PL3-Asp-Ile-B5-Asp-3COOHF-Aib-Ala-Phe-Lys*3-PyrS2-Phe-34ClF-dGlnR*3-NH2 [I-1757],> 7.30
3,Ac-PL3-Asp-Ile-B5-Asp-3COOHF-Aib-Ala-Phe-Lys*3-PyrS2-Phe-34ClF-dGlnR*3-NHMe [I-1758],> 7.30
4,Ac-PL3-Asp-Ile-B5-Asp-3COOHF-Aib-Ala-Phe-Lys*3-PyrS2-Phe-34ClF-hGlnR*3-NH2 [I-1371],> 7.30
5,Ac-PL3-Asp-Ile-B5-Asp-3COOHF-Aib-Ala-Phe-Lys*3-PyrS2-Phe-34MeF-GlnR*3-Ala-NH2 [I-1104],> 7.30
6,Ac-PL3-Asp-Ile-B5-Asp-3COOHF-Aib-Ala-Phe-Lys*3-PyrS2-Phe-34MeF-GlnR*3-NH2 [I-1105],> 7.30
7,Ac-PL3-Asp-Ile-B5-Asp-3COOHF-Aib-Ala-Phe-Lys*3-PyrS2-Phe-Phe-GlnR*3-NH2 [I-1594],> 7.30
8,Ac-PL3-Asp-Ile-B5-Asp-3COOHF-Aib-Ala-Phe-Lys*3-PyrS2-hCbA-34ClF-GlnR*3-Ala-NH2 [I-1326],> 7.30
9,Ac-PL3-Asp-Ile-B5-Asp-3COOHF-Aib-Ala-Phe-Lys*3-PyrS2-hCbA-BztA-GlnR*3-Ala-NH2 [I-1323],> 7.30
10,Ac-PL3-Asp-Ile-B5-Asp-3COOHF-Aib-Ala-Phe-Lys*3-PyrS2-hCha-34ClF-GlnR*3-Ala-NH2 [I-1328],> 7.30
11,Ac-PL3-Asp-Ile-B5-Asp-3COOHF-Aib-Ala-Phe-Lys*3-PyrS2-hCha-BztA-GlnR*3-Ala-NH2 [I-1325],6.70 to 7.30
12,Ac-PL3-Asp-Ile-B5-Asp-3COOHF-Aib-Ala-Phe-Lys*3-PyrS2-hCypA-34ClF-GlnR*3-Ala-NH2 [I-1327],> 7.30
13,Ac-PL3-Asp-Ile-B5-Asp-3COOHF-Aib-Ala-Phe-Lys*3-PyrS2-hCypA-BztA-GlnR*3-Ala-NH2 [I-1324],> 7.30
14,Ac-PL3-Asp-Ile-B5-Asp-3COOHF-Aib-Ala-Phe-Lys*3-PyrS2-hPhe-34ClF-GlnR*3-Ala-NH2 [I-1315],> 7.30
15,Ac-PL3-Asp-Ile-B5-Asp-3COOHF-Aib-Ala-Phe-Lys*3-PyrS2-hPhe-BztA-GlnR*3-Ala-NH2 [I-1311],6.70 to 7.30
16,Ac-PL3-Asp-Ile-B5-Asp-3COOHF-Aib-Ala-Phe-Lys*3-PyrS2-hhLeu-34ClF-GlnR*3-Ala-NH2 [I-1314],> 7.30
17,Ac-PL3-Asp-Ile-B5-Asp-3COOHF-Aib-Ala-Phe-Lys*3-PyrS2-hhLeu-BztA-GlnR*3-Ala-NH2 [I-1310],> 7.30
18,Ac-PL3-Asp-Ile-B5-Asp-3COOHF-Aib-Ala-Phe-Lys*3-PyrS2-hhSer-34ClF-GlnR*3-Ala-NH2 [I-1316],6.70 to 7.30
19,Ac-PL3-Asp-Ile-B5-Asp-3COOHF-Aib-Ala-Phe-Lys*3-PyrS2-hhSer-BztA-GlnR*3-Ala-NH2 [I-1313],> 7.30
20,Ac-PL3-Asp-Ile-B5-Asp-3COOHF-Aib-Ala-Phe-Orn*3-PyrS2-Phe-34ClF-dGlnR*3-Ala-NH2 [I-1782],> 7.30
21,Ac-PL3-Asp-Ile-B5-Asp-3COOHF-Aib-Ala-Phe-Orn*3-PyrS2-Phe-34ClF-dGlnR*3-NH2 [I-1779],> 7.30
22,Ac-PL3-Asp-Ile-B5-Asp-3COOHF-Aib-Ala-Phe-Orn*3-PyrS2-Phe-34ClF-dGlnR*3-NHMe [I-1781],> 7.30

row,Substance,pIC50
1,Ac-PL3-Asp-Ile-B5-Asp-3COOHF-Aib-Ala-Phe-TriAzLys*3-PyrS2-3Thi-34ClF-sAla*3-NH2 [I-1089],> 7.30
2,Ac-PL3-Asp-Ile-B5-Asp-3COOHF-Aib-Ala-Phe-TriAzLys*3-PyrS2-Phe-34ClF-sAla*3-Ala-NH2 [I-1095],> 7.30
3,Ac-PL3-Asp-Ile-B5-Asp-3COOHF-Aib-Ala-Phe-TriAzLys*3-PyrS2-Phe-34ClF-sAla*3-NH2 [I-1094],> 7.30
4,Ac-PL3-Asp-Ile-B5-Asp-3COOHF-Aib-Ala-Phe-hGlnR*3-PyrS2-Phe-34ClF-1MeK*3-NH2 [I-1374],> 7.30
5,Ac-PL3-Asp-Ile-B5-Asp-3COOHF-Aib-Ala-Phe-hGlnR*3-PyrS2-Phe-34ClF-Lys*3-NH2 [I-1372],> 7.30
6,Ac-PL3-Asp-Ile-B5-Asp-3COOHF-Ala-Ala-Phe-Lys*3-PyrS1-Phe-34ClF-GlnR*3-NH2 [I-1698],> 7.30
7,Ac-PL3-Asp-Ile-B5-Asp-3COOHF-Ala-Ala-Phe-Lys*3-PyrS2-2MeF-34ClF-GlnR*3-NH2 [I-1510],6.12 to 6.70
8,Ac-PL3-Asp-Ile-B5-Asp-3COOHF-Ala-Ala-Phe-Lys*3-PyrS2-Phe-34ClF-GlnR*3-NH2 [I-1697],> 7.30
9,Ac-PL3-Asp-Ile-B5-Asp-3COOHF-Ala-Ala-Phe-TriAzLys*3-PyrS2-Phe-34ClF-sAla*3-NH2 [I-1863],> 7.30
10,Ac-PL3-Asp-Ile-B5-Asp-3COOHF-Ala-Ala-Phe-TriAzLys*3-PyrS2-Phe-34ClF-sCH2S*3-NH2 [I-1865],> 7.30
11,Ac-PL3-Asp-Ile-B5-Asp-3COOHF-Ala-Ala-Phe-TriAzOrn*3-PyrS2-Phe-34ClF-sCH2S*3-NH2 [I-1867],> 7.30
12,Ac-PL3-Asp-Ile-B5-Asp-3COOHF-Ala-Ala-Phe-sAla*3-PyrS2-Phe-34ClF-TriAzLys*3-NH2 [I-1864],> 7.30
13,Ac-PL3-Asp-Ile-B5-Asp-3COOHF-Ala-Ala-Phe-sCH2S*3-PyrS2-Phe-34ClF-TriAzLys*3-NH2 [I-1866],> 7.30
14,Ac-PL3-Asp-Ile-B5-Asp-3COOHF-Ala-Ala-Phe-sCH2S*3-PyrS2-Phe-34ClF-TriAzOrn*3-NH2 [I-1869],> 7.30
15,Ac-PL3-Asp-Ile-B5-Asp-3COOHF-Cbg-Ala-Phe-Lys*3-PyrS2-3Thi-BztA-GlnR*3-Ala-NH2 [I-856],> 7.30
16,Ac-PL3-Asp-Ile-B5-Asp-3COOHF-Cha-Ala-Phe-Lys*3-PyrS2-3Thi-BztA-GlnR*3-Ala-NH2 [I-731],> 7.30
17,Ac-PL3-Asp-Ile-B5-Asp-3COOHF-CyLeu-Ala-Phe-Lys*3-PyrS2-2MeF-34ClF-GlnR*3-NH2 [I-1511],6.12 to 6.70
18,Ac-PL3-Asp-Ile-B5-Asp-3COOHF-CyLeu-Ala-Phe-Lys*3-PyrS2-3Thi-34ClF-GlnR*3-NH2 [I-1040],> 7.30
19,Ac-PL3-Asp-Ile-B5-Asp-3COOHF-CyLeu-Ala-Phe-Lys*3-PyrS2-3Thi-34ClF-GlnR*3-Val-Glu-Ala-NH2 [I-1266],> 7.30
20,Ac-PL3-Asp-Ile-B5-Asp-3COOHF-CyLeu-Ala-Phe-Lys*3-PyrS2-3Thi-34ClF-GlnR*3-Val-Glu-Leu-NH2 [I-1267],> 7.30
21,Ac-PL3-Asp-Ile-B5-Asp-3COOHF-CyLeu-Ala-Phe-Lys*3-PyrS2-3Thi-34ClF-GlnR*3-Val-Thr-Ala-NH2 [I-1268],> 7.30
22,Ac-PL3-Asp-Ile-B5-Asp-3COOHF-CyLeu-Ala-Phe-Lys*3-PyrS2-3Thi-BztA-GlnR*3-Ala-NH2 [I-730],> 7.30

row,Substance,pIC50
1,Ac-PL3-Asp-Ile-B5-Asp-3COOHF-CyLeu-Ala-Phe-Lys*3-PyrS2-Phe-34ClF-GlnR*3-NH2 [I-1052],> 7.30
2,Ac-PL3-Asp-Ile-B5-Asp-3COOHF-CyLeu-Ala-Phe-Lys*3-PyrS2-Phe-34ClF-GlnR*3-Val-Glu-Ala-NH2 [I-1258],> 7.30
3,Ac-PL3-Asp-Ile-B5-Asp-3COOHF-CyLeu-Ala-Phe-Lys*3-PyrS2-Phe-34ClF-GlnR*3-Val-Glu-Leu-NH2 [I-1260],> 7.30
4,Ac-PL3-Asp-Ile-B5-Asp-3COOHF-CyLeu-Ala-Phe-Lys*3-PyrS2-Phe-34ClF-GlnR*3-Val-Thr-Ala-NH2 [I-1262],> 7.30
5,Ac-PL3-Asp-Ile-B5-Asp-3COOHF-CyhLeu-Ala-Phe-Lys*3-PyrS2-3Thi-BztA-GlnR*3-Ala-NH2 [I-849],> 7.30
6,Ac-PL3-Asp-Ile-B5-Asp-3COOHF-Dpg-Ala-Phe-Lys*3-PyrS2-3Thi-BztA-GlnR*3-Ala-NH2 [I-975],> 7.30
7,Ac-PL3-Asp-Ile-B5-Asp-3COOHF-GlnBDA*3-Ala-Phe-Leu-PyrS2-Phe-34ClF-GlnR*3-NH2 [I-1796],> 7.30
8,Ac-PL3-Asp-Ile-B5-Asp-3COOHF-GlnMePDA*3-Ala-Phe-Ala-PyrS2-Phe-34ClF-GlnR*3-NH2 [I-1800],6.12 to 6.70
9,Ac-PL3-Asp-Ile-B5-Asp-3COOHF-GlnMePDA*3-Ala-Phe-Leu-PyrS2-Phe-34ClF-GlnR*3-NH2 [I-1799],6.70 to 7.30
10,Ac-PL3-Asp-Ile-B5-Asp-3COOHF-GlnMePDA*3-Ala-Phe-Val-PyrS2-Phe-34ClF-GlnR*3-NH2 [I-1801],< 6.00
11,Ac-PL3-Asp-Ile-B5-Asp-3COOHF-GlnPDA*3-Ala-Phe-Ala-PyrS2-Phe-34ClF-GlnR*3-NH2 [I-1794],6.12 to 6.70
12,Ac-PL3-Asp-Ile-B5-Asp-3COOHF-GlnPDA*3-Ala-Phe-Leu-PyrS2-Phe-34ClF-GlnR*3-NH2 [I-1793],6.70 to 7.30
13,Ac-PL3-Asp-Ile-B5-Asp-3COOHF-GlnPDA*3-Ala-Phe-Val-PyrS2-Phe-34ClF-GlnR*3-NH2 [I-1795],6.12 to 6.70
14,Ac-PL3-Asp-Ile-B5-Asp-3COOHF-GlnR*3-Ala-Phe-Ala-PyrS2-Phe-34ClF-GlnMePDA*3-NH2 [I-1803],6.12 to 6.70
15,Ac-PL3-Asp-Ile-B5-Asp-3COOHF-GlnR*3-Ala-Phe-Ala-PyrS2-Phe-34ClF-GlnT4CyMe*3-NH2 [I-1811],6.70 to 7.30
16,Ac-PL3-Asp-Ile-B5-Asp-3COOHF-GlnR*3-Ala-Phe-Leu-PyrS2-Phe-34ClF-GlnMePDA*3-NH2 [I-1802],6.70 to 7.30
17,Ac-PL3-Asp-Ile-B5-Asp-3COOHF-GlnR*3-Ala-Phe-Val-PyrS2-Phe-34ClF-GlnMePDA*3-NH2 [I-1804],6.12 to 6.70
18,Ac-PL3-Asp-Ile-B5-Asp-3COOHF-Leu-Ala-Phe-Lys*3-PyrS2-3Thi-BztA-GlnR*3-Ala-NH2 [I-972],> 7.30
19,Ac-PL3-Asp-Ile-B5-Asp-3COOHF-Phe-Ala-Phe-Lys*3-PyrS2-3Thi-34MeF-GlnR*3-Ala-NH2 [I-1101],> 7.30
20,Ac-PL3-Asp-Ile-B5-Asp-3COOHF-Phe-Ala-Phe-Lys*3-PyrS2-3Thi-34MeF-GlnR*3-NH2 [I-1102],> 7.30
21,Ac-PL3-Asp-Ile-B5-Asp-3COOHF-Phe-Ala-Phe-Lys*3-PyrS2-Phe-34MeF-GlnR*3-Ala-NH2 [I-1106],> 7.30

# pIC50: −log10 of the molar value.
